Target: Aβ40 (amyloid-β; oligomers and fibrils) (Homo sapiens, UniProt P05067)
Assay: fluorescence turn-on binding with Aβ[…] oligomers/fibrils ([…])

Amino acid sequences for entries named in this document (tags omitted). Residues count along the entry.
UniProt P05067, 672-711 limits assumed: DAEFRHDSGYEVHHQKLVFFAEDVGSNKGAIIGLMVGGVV

Compound: CCCC(CCC)C(=O)OCC(=C1N=C(/C=C/c2ccc(N(c3ccccc3)c3ccccc3)cc2)OC1=O)c1ccc([N+](=O)[O-])cc1
- Kd: 478 nM

From paper PMC12291143
